# Experimental fraction unbound values from OPERA 2.9

Source: data files of OPERA 2.9 (Mansouri et al.), github.com/kmansouri/OPERA.

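These are experimental values that the OPERA curators gathered from public databases to train and test their QSAR models. The files give a single number for a compound and property, which may rest on several reports. How each value was measured is not recorded, so precision varies. A value may pool stereoisomers or salt forms, and the file does not say which form was measured. Unmarked limits or estimates from the upstream databases cannot be ruled out.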

The unbound fraction in human plasma runs from 0 (all bound) to 1 (all free).

SMILES	fu
Cc1cn([C@@H]2C[C@@H](O)[C@H](CO)O2)c(=O)[nH]c1=O	0.967
Nc1ccn([C@@H]2O[C@H](CO)[C@@H](O)C2(F)F)c(=O)n1	0.995
COC(=O)c1c(Cl)c(Cl)c(C(=O)OC)c(Cl)c1Cl	0.01666
O=C1[C@H](CC[C@H](O)c2ccc(F)cc2)[C@@H](c2ccc(O)cc2)N1c1ccc(F)cc1	0.1
CCCCC(CC)COC(=O)CCCCCCCC(=O)OCC(CC)CCCC (stereo unspecified)	0.03126
CC(=O)O[C@@]12CO[C@@H]1C[C@H](O)[C@@]1(C)C(=O)[C@H](O)C3=C(C)[C@@H](OC(=O)[C@H](O)[C@@H](NC(=O)OC(C)(C)C)c4ccccc4)C[C@@](O)([C@@H](OC(=O)c4ccccc4)[C@H]21)C3(C)C	0.03833
c1ccc2cc3ccccc3cc2c1	0.0252
O=c1cc(O)c2c(=O)n(-c3ccccc3)c3ccccc3c2o1	0.0183
Nc1nc(NC2CC2)c2ncn([C@@H]3C=C[C@@H](CO)C3)c2n1	0.5
CC1=CC(=O)/C(=C(/C)[O-])C(=O)O1.[Na+]	0.062
CNC[C@H](O)CC12CCC(c3ccccc31)c1ccccc12	0.19
CCOC(=O)[C@H](CCc1ccccc1)N[C@H]1CCc2ccccc2N(CC(=O)O)C1=O	0.04045
CCCCCCCC	0.1031
CC=C(C(=CC)c1ccc(O)cc1)c1ccc(O)cc1	0.35
CC(C)=CCC1C(=O)N(c2ccccc2)N(c2ccccc2)C1=O	0.05
C[C@@H](Oc1ccc(cc1)Oc1[n]cc(Cl)cc1F)C(=O)OCC#C	0.0148
CCCCCCCCCC	0.06697
CCNc1ccccc1	0.214
COC(=O)[C@H]1[C@H]2C[C@@H]3c4[nH]c5cc(OC)ccc5c4CCN3C[C@H]2C[C@@H](OC(=O)c2cc(OC)c(OC)c(OC)c2)[C@@H]1OC	0.005994
CN(C)CCn1nnnc1SCC1=C(C(=O)O)N2C(=O)[C@@H](NC(=O)Cc3csc(N)n3)[C@H]2SC1	0.6
CC[C@H]1NC(=O)[C@@H](NC(=O)c2ncccc2O)[C@@H](C)OC(=O)[C@H](c2ccccc2)NC(=O)[C@@H]2CC(=O)[C@H](CS[C@@H]3CN4CCC3CC4)CN2C(=O)[C@H](Cc2ccc(N(C)C)cc2)N(C)C(=O)[C@@H]2CCCN2C1=O	0.3375
CCCCCCCCC	0.08128
C[C@H]1CN(C[C@H](Cc2ccccc2)C(=O)NCC(=O)O)CC[C@@]1(C)c1cccc(O)c1	0.15
CC#CCC(C)[C@H](O)/C=C/[C@@H]1[C@H]2C/C(=C/CCCC(=O)O)C[C@H]2C[C@H]1O (stereo partly specified)	0.4
CCNC(=O)[C@@H]1CCCN1C(=O)[C@H](CCCNC(=N)N)NC(=O)[C@H](CC(C)C)NC(=O)[C@@H](CC(C)C)NC(=O)[C@H](Cc1ccc(O)cc1)NC(=O)[C@H](CO)NC(=O)[C@H](Cc1c[nH]c2ccccc12)NC(=O)[C@H](Cc1c[nH]cn1)NC(=O)[C@@H]1CCC(=O)N1	0.54
CCCCOC(=O)CC(CC(=O)OCCCC)(OC(C)=O)C(=O)OCCCC	0.00942
CCN(CC)C(=O)Nc1ccc(OCC(O)CNC(C)(C)C)c(C(C)=O)c1 (stereo unspecified)	0.75
COC(=O)C1=C(C)NC(C)=C(C(=O)OC(C)C)C1c1cccc2nonc12 (stereo unspecified)	0.04333
COc1ccc2c(c1)c(CC(=O)OCC(=O)O)c(C)n2C(=O)c1ccc(Cl)cc1	0.1
COc1cc(NS(C)(=O)=O)ccc1Nc1c2ccccc2nc2ccccc12	0.02675
CCCCCOc1ccc(-c2cc(-c3ccc(C(=O)N[C@H]4C[C@@H](O)[C@@H](O)NC(=O)[C@@H]5[C@@H](O)[C@@H](C)CN5C(=O)[C@H]([C@H](O)CC(N)=O)NC(=O)C([C@H](O)[C@@H](O)c5ccc(O)c(OS(=O)(=O)O)c5)NC(=O)[C@@H]5C[C@@H](O)CN5C(=O)C([C@@H](C)O)NC4=O)cc3)no2)cc1 (stereo partly specified)	0.003312
C=CC[N@@+]12CC[C@@]34c5ccccc5N5C=C6[C@H]7C[C@H]8[C@@]9(CC[N@@+]8(CC=C)C/C7=C/CO)c7ccccc7N(C=C([C@@H](C[C@@H]31)/C(=C\CO)C2)[C@H]54)[C@@H]69	0.6
N=C(N)c1ccc(OCCCCCOc2ccc(C(=N)N)cc2)cc1	0.3
NCC[C@H](O)C(=O)N[C@@H]1C[C@H](N)[C@@H](O[C@H]2O[C@H](CN)CC[C@H]2N)[C@H](O)[C@H]1O[C@H]1O[C@H](CO)[C@@H](O)[C@H](N)[C@H]1O	0.92
O=S1(=O)OC(c2ccc([O-])cc2)(c2ccc(O)cc2)c2ccccc21.[Na+]	0.1117
CC(=O)S[C@H](C(=O)N[C@H]1Cc2ccccc2[C@H]2CCC[C@@H](C(=O)O)N2C1=O)C(C)C	0.319
CC(C(=O)O)c1ccc2oc(-c3ccc(Cl)cc3)nc2c1 (stereo unspecified)	0.004899
N[C@@H](C(=O)N[C@@H]1C(=O)N2C(C(=O)O)=C(Cl)CC[C@H]12)c1ccccc1	0.75
CCCOC(=O)c1cc(O)c(O)c(O)c1	0.0258

The 3 highest values of fu among the entries above:

SMILES	fu
Nc1ccn([C@@H]2O[C@H](CO)[C@@H](O)C2(F)F)c(=O)n1	0.995
Cc1cn([C@@H]2C[C@@H](O)[C@H](CO)O2)c(=O)[nH]c1=O	0.967
NCC[C@H](O)C(=O)N[C@@H]1C[C@H](N)[C@@H](O[C@H]2O[C@H](CN)CC[C@H]2N)[C@H](O)[C@H]1O[C@H]1O[C@H](CO)[C@@H](O)[C@H](N)[C@H]1O	0.92